This experiment has as its target Bruton's Tyrosine Kinase (inactivated state) (Homo sapiens (Human), UniProt Q06187). Briefly: Bruton's Tyrosine Kinase (BTK) Inhibition TR-FRET (Time Resolved FRET) competition assay. Format: binding. Particulars: inactivated state of BTK; Kinase Tracer 178; incubated 18-24 h at 14° C. The protocol: This BTK competition assay measures compound potency (IC50) for the inactivated state of Bruton's Tyrosine Kinase using FRET (Forster/Flouresence Resonance Energy Transfer) technology. The BTK-Eu complex was incubated on ice one hour prior to use at a starting concentration of 50 nM BTK-Bioease™: 10 nM Eu-streptavidin (Perkin-Elmer Catalog# AD0062). The assay buffer consisted of 20 mM HEPES (pH 7.15), 0.1 mM DTT, 10 mM MgCl2, 0.5 mg/ml BSA with 3% Kinase Stabilizer (Fremont Biosolutions, Catalog # STB-K02). After 1 h, the reaction mixture from above was diluted 10 fold in assay buffer to make 5 nM BTK: 1 nM Eu-Streptavidin complex (donor fluorophore). 18 μl of a mixture of 0.11 nM BTK-Eu and 0.11 nM Kinase Tracer 178 (Invitrogen, Catalog # PV5593,) with BTK-Eu alone as no negative control, was then dispensed into 384-well flat bottom plates (Greiner, 784076). […]
After the incubation the plates were read on a BMG Pherastar Fluorescent plate reader (or equivalent) and used to measure the emission energy from the europium donor fluorophore (620 nm emission) and the FRET (665 nm emission). […] Percent of maximal FRET was calculated using following equation: % max FRET=100×[(FSRcmpd−FSRmean min)/(FSRmean max−FSRmean min)] where FSR=FRET Signal ratio. % Max FRET curves were plotted in Activity Base (Excel) and the IC50(%), hill slope, z′ and % CV were determined. […]

By UniProt entry, the sequences of proteins in these tests, tags left out. Where a name states a change or a piece, a line headed by the entry shows the natural chain unless it says otherwise.
UniProt Q06187: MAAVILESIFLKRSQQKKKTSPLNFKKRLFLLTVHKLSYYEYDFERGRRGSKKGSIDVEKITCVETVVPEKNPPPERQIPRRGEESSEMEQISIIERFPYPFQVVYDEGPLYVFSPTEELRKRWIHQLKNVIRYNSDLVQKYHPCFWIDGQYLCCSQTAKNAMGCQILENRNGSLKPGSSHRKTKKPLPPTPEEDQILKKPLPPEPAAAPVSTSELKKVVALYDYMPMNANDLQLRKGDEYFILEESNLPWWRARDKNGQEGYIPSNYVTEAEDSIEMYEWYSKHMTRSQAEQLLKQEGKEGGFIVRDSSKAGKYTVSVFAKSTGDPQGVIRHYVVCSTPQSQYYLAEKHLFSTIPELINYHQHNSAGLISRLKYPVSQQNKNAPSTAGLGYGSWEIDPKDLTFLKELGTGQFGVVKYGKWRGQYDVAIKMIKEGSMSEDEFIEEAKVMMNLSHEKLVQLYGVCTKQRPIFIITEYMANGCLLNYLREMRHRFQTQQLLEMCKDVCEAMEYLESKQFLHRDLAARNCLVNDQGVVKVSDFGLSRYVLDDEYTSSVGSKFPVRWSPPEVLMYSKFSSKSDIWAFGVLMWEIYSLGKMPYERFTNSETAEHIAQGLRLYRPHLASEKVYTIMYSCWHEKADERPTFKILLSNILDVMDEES

The structures appear in SMILES notation.

The molecule `Cc1cc(Oc2cccc(F)c2F)ccc1-n1ncc(C(=O)c2cc3c(CN4CCOCC4)cccc3[nH]2)c1N` [Compound 19, {5-Amino-1-[4-(2,3-difluoro-phenoxy)-2-methyl-phenyl]-1H-pyrazol-4-yl}-(4-morpholin-4-ylmethyl-1H-indol-2-yl)-methanone] gave an IC50 of 5.59 nM.

What is called IC50 is the point on the concentration scale where inhibition reaches its midpoint. Low readings indicate inhibition by little substance, high ones a need for much substance.

The record behind these values is patent US9624201B2, “Inhibitors of bruton's tyrosine kinase” (Hoffmann-La Roche Inc., priority 2013, dated 2017).
